{"source": "ChEMBL document CHEMBL2086329", "about": "“Design and synthesis of potent, selective inhibitors of matriptase” (ACS Med Chem Lett, 2012)", "target": "T1, Suppressor of tumorigenicity 14 protein (Homo sapiens, UniProt Q9Y5Y6)", "T1 sequence (Q9Y5Y6 whole entry)": "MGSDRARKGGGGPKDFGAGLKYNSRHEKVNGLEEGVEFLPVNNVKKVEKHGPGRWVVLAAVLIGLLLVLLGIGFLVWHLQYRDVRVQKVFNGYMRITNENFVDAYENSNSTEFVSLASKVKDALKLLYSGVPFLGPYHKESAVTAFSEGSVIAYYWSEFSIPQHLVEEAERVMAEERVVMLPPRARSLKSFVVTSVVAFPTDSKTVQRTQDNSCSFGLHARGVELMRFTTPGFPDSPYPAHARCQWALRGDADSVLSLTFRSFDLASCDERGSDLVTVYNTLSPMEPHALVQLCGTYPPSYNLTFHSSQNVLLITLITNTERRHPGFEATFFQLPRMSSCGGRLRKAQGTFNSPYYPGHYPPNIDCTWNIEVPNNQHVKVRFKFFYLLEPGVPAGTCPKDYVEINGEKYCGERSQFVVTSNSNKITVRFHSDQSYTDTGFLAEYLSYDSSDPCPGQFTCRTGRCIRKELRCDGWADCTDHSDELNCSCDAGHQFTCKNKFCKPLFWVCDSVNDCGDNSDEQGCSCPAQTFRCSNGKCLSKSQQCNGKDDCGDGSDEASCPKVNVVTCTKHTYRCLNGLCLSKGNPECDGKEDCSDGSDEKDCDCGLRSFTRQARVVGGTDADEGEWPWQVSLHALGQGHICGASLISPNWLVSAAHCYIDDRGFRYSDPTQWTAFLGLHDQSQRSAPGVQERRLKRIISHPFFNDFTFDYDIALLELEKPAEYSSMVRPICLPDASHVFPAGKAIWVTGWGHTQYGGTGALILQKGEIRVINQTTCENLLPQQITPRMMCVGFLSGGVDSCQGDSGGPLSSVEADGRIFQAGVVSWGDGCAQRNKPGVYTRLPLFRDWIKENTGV", "assay": "Tight binding inhibition of human matriptase expressed in Drosophila melanogaster S2 cells using Boc-QAR-AMC as substrate incubated for 15 mins prior to substrate addition measured for 30 mins by fluorimetric analysis", "data": [{"smiles": "C[C@H](NC(=O)[C@H](CCC(N)=O)NC(=O)[C@@H](N)CCCN=C(N)N)C(=O)N[C@H](CCCN=C(N)N)C(=O)c1nc2ccccc2s1", "values": [{"measurement": "Ki", "value": 4.6, "unit": "nM"}]}]}
